Experimental data reported in ChEMBL document CHEMBL1134157, “General synthesis of alpha-substituted 3-bisaryloxy propionic acid derivatives as specific MMP inhibitors” (Bioorg Med Chem Lett, 2001).

Target: T1, Interstitial collagenase (Homo sapiens, UniProt P03956)
T1 sequence (P03956 whole entry): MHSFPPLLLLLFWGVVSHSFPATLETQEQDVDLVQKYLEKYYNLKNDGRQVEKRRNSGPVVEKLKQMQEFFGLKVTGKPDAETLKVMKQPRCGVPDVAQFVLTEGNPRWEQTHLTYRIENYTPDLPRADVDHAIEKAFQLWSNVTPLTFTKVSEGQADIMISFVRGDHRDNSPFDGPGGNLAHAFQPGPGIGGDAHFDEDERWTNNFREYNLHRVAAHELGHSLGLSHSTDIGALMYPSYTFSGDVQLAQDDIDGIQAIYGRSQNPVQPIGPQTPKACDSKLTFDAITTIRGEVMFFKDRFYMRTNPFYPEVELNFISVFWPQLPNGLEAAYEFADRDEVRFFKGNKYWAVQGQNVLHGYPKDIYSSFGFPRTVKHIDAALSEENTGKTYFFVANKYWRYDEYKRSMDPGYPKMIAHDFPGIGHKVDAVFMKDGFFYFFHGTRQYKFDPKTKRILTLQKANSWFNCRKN
Assay: Inhibition of Matrix metalloprotease-1

Row | SMILES | pIC50
1 | O=C(NO)C(CCn1nnc2ccccc2c1=O)COCCc1ccc(-c2ccc(Cl)cc2)cc1 (configuration not stated) | 5.02
2 | O=C(NO)C(CCn1c(=O)[nH]c2ccccc2c1=O)COc1ccc(-c2ccccc2)cc1 (configuration not stated) | 5.55

pIC50: −log10 of the molar value.
